Patent US6080542A, “Plant peptide transport gene” (priority 1997, dated 2000)

How the values were obtained:
[1] = target: T1, yeast peptide transport system (Saccharomyces cerevisiae, UniProt P32901); experiment: Competition for L-leucyl-L-[3H]leucine uptake, PB1X-9B[pJP9]; type: cell-based; conditions: pH 5.5
T1 construct: The ptr2 gene encodes a 602 amino acid hydrophobic polypeptide with 12 putative hydrophobic segments; expressed in transfected cells; host or cells: S. cerevisiae peptide transport mutant PB1X-9B (ptr2-2) transformed with pJP9
T1 sequence (P32901 1-601): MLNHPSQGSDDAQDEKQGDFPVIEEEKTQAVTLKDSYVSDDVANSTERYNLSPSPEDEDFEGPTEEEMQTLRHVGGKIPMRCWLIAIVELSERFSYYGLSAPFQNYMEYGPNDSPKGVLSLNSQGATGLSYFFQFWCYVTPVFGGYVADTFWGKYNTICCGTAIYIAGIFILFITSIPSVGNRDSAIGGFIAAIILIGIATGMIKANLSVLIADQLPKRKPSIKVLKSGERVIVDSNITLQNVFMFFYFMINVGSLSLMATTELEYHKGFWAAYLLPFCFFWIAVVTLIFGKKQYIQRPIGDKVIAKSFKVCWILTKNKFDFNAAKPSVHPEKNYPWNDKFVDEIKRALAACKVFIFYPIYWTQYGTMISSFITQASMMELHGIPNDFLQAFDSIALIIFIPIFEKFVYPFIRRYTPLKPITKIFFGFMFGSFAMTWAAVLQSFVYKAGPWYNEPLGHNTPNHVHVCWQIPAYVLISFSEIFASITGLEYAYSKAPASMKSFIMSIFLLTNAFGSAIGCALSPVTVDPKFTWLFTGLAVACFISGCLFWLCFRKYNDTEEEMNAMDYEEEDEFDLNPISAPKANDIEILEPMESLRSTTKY
Method: (§1) L-leucyl-L [^3 H]leucine trifluoroacetic acid (TFA) was synthesized by standard solution phase techniques (Naider, F. et al., J. Biol. Chem. 249:9-20 (1974)). Uptake of L-leucyl-L-[H]leucine was performed as by Island, M. D. et al (J. Bacteriol. 169:2132-2136 (1987)), with the following modifications. Cells were grown to late log phase (26×10^7 cells/ml) overnight in SC with 2% glucose, 1 mg/ml allantoin plus amino acids to supplement auxotrophic markers. To induce peptide transport. 5-15 ml from this culture was added to 100 ml fresh medium such that the density was 3.0×10^6 cells/ml. This culture was allowed to grow (approx. 2 hrs.) to a density of 6.0×10^6 cells/ml and then harvested by centrifugation. The pelleted cells were washed twice with 10 ml cold dH2 O and suspended in cold 2% glucose to a final concentration of 2×10^8 cells/ml and incubated at 30° C. for 15 min. 500 μl of cells were then added to an equal volume of reaction mixture (30° C.) and incubated at 30°-C. At 20, 40, 60, 90, and 120 sec. intervals, 190 μl portions were removed, filtered over filters (pore size, 0.45 μm; GN-6; Gelman Sciences, Inc., Ann Arbor, Mich.) and washed 2 times with 5 ml cold, sterile dH2 O and once with 5 ml dH2 O at room temperatures. Filters were placed in scintillation vials with 5 ml of Budget-Solve scintillation cocktail (Research Products International Corp., Mount Prospect, Ill.) and counted (liquid scintillation counter; LS-7000; Beckman Instruments, Inc., Fullerton, Calif.). The final concentration of the components in the uptake assay was 1% glucose, 40 mM sodium citrate-potassium phosphate buffer (pH 5.5), and 1.5×105 M L-leucyl-L-[^3 H]leucine (specific activity, 10 mCi/mmole). Uptake is expressed as nanomoles per mg dry weight.

[2] = tested on: A. thaliana seedlings; experiment: Root assay, toxic peptide plus competitor peptide; type: in vivo, Arabidopsis thaliana
Method: Approximately 15 A. thaliana seeds were placed in a row at one end of 10 cm plate containing 20 ml of Arabidopsis growth media (Kranz and Kirchheim 1987). The seeds were incubated 3-5 days in the light with the plate set in an upright position. When the roots were approximately 1-2 cm long, sterile paper filter disks were placed immediately in front of the root tips on the right and left side of the plate 2 cm from the edge of the plate. A line was drawn across the plate using the top of the disks as a guide marking zero growth. 5 μl of toxic amino acid analog, toxic peptide, or toxic peptide plus competitor was added to one disk while H2 O was place on the other disk. The plates were incubated for an additional 3-5 days. The average length of the roots was measured from the line and the results expressed as a percentage of control root growth.

[3] = tested on: ATPTR2Ap; experiment: Uptake of L-leucyl-L-[3H]leucine and competition, PB1X-9B[pPTF4]; conditions: pH 5.5, dileucine and leucine at 100-fold
Method: The kinetics of ATPTR2A-mediated transport of peptides in yeast was evaluated by transforming pPTF4 into the S. cerevisiae peptide transport mutant, PB1X-9B and measuring the uptake of tritiated Leu-Leu dipeptide.
as §1

[4] = tested on: PB1X-9B; experiment: Growth on peptides as amino acid source, peptide transport mutant; type: cell-based, Saccharomyces cerevisiae; parameters: key: +: Growth was scored as uniform colony formation; -: negative controls which showed no growth; conditions: PBIX-9B; 80 μM peptide in SC medium, 30° C., 72 hrs
Method: (§2) Thus, the peptide transport mutant PB1X-9B and deletion strain PB1X-2AΔ transformed with plasmids pPTF4 (ATPTR2A) or pDTF1 (ATPTR2B) were grown on various peptides to assess the specificity of the plant peptide transporter. In addition, untransformed PB1X-9B, PB1X-9B transformed with plasmid pJP9 encoding the above-described yeast peptide transport gene, PB1X-2AΔ and PB1X-2A, the ptr2^+ parental strain to PB1X-2AΔ strain, were also assayed. Each strain was grown overnight in SC media plus uracil (non-transformed) or minus uracil (transformed) plus amino acids to stationary phase and harvested by centrifugation. Cells were then washed twice with sterile dH2 O and resuspended at 5×10^6 cells/ml. 5 μl of each suspension was applied as a small spot to a 2 ml volume of solid media in a 24 well plate. All peptides were suspended in sterile, deionized water and added to an equal volume of SC medium plus the appropriate amino acids and uracil when required. The medium for each assay thus consisted of SC medium plus or minus uracil supplemented with 80 μM of a specific peptide and auxotrophic requirements minus the amino acid components of the added peptide. The plates were incubated at 30° C. for 72 hrs. and then scored for growth.

[5] = tested on: PB1X-9B (pPTF4); experiment: Growth on peptides, mutant transformed with plant gene ATPTR2A; type: cell-based, Saccharomyces cerevisiae; parameters: key: +: Growth was scored as uniform colony formation; -: negative controls which showed no growth; conditions: PBIX-9B (pPTF4); 80 μM peptide in SC medium, 30° C., 72 hrs
Method: as §2

[6] = tested on: PB1X-9B (pJP9); experiment: Growth on peptides, mutant transformed with yeast peptide transport gene; type: cell-based, Saccharomyces cerevisiae; parameters: key to growth on peptide: +: Growth was scored as uniform colony formation; -: negative controls which showed no growth; conditions: for growth on peptide: PBIX-9B (pJP9), 80 μM peptide in SC medium, 30° C., 72 hrs
Method: as §2

[7] = tested on: PB1X-2AΔ (pDTF1); experiment: Growth on peptides, deletion strain transformed with ATPTR2B; type: cell-based, Saccharomyces cerevisiae; parameters: key: +: Growth was scored as uniform colony formation; -: negative controls which showed no growth; conditions: PBIX-2AΔ (pDTF1); 80 μM peptide in SC medium, 30° C., 72 hrs
Method: as §2

Row | Substance | competition for uptake of [3H]-dileucine [1] | reversal of toxicity by competitor (in words) ([2]; toxic peptide Ala-Eth) | root growth with toxic peptide plus competitor ([2]; toxic peptide Ala-Eth) | reversal of toxicity by competitor (in words) ([2]; toxic peptide Leu-Eth) | competition for uptake of [3H]-dileucine [3] | growth on peptide [4] | growth on peptide [5] | growth on peptide [6] | growth on peptide [7] | further results
1 | Ala-Ala: competitor dipeptide (AA) | uptake competition similar to that seen for Leu-Leu | unable to reverse the inhibition | 0 percentage of control root gro | unable to reverse the inhibition | uptake competition similar to that seen for Leu-Leu |  |  |  |  | root growth with toxic peptide plus competitor ([2]; toxic peptide Leu-Eth): 0 percentage of control root gro
2 | Ala-Leu: dipeptide growth substrate (AL) |  |  |  |  |  | - | + | + |  | 
3 | Ala-Lys: dipeptide growth substrate (AK) |  |  |  |  |  | - | + | + | + | 
4 | Ala-Met: competitor dipeptide (AM) | uptake competition similar to that seen for Leu-Leu | able to reverse the toxicity | 70 percentage of control root gro |  | uptake competition similar to that seen for Leu-Leu |  |  |  |  | 
5 | His-Lys: dipeptide growth substrate (HK) |  |  |  |  |  | - | + | + | + | 
6 | Leu-Met: competitor dipeptide (LM) |  |  |  | reversing the toxicity |  |  |  |  |  | root growth with toxic peptide plus competitor ([2]; toxic peptide Leu-Eth): 100 percentage of control root gro
7 | Leu-Phe: competitor dipeptide (LF) | uptake competition similar to that seen for Leu-Leu |  |  |  | uptake competition similar to that seen for Leu-Leu |  |  |  |  | 
8 | Lys-Lys: dipeptide growth substrate |  |  |  |  |  | - | + | + | + | 
9 | Met-Met: competitor dipeptide (MM) | uptake competition similar to that seen for Leu-Leu | able to reverse the toxicity | 40 percentage of control root gro | reversing the toxicity | uptake competition similar to that seen for Leu-Leu |  |  |  |  | 
10 | Tyr-Gly-Gly-Phe-Leu |  |  |  |  |  | - | - | - |  | growth on peptide (in words) ([6]; PB1X-9B transformed with pJP9): showed growth on all peptides except
